# The entries are a selection whose mix differs from that of the whole data set. Activity calls are given as the source filed them. Cut-off read from the data, not from the text of the source: active = inhibition above about 30%; inactive = the rest.
# Chains of the proteins cited; added tags and fusions are not shown. Lines headed by an entry give the natural chain unless they say otherwise; changes in a name come on top.
# UniProt O95977: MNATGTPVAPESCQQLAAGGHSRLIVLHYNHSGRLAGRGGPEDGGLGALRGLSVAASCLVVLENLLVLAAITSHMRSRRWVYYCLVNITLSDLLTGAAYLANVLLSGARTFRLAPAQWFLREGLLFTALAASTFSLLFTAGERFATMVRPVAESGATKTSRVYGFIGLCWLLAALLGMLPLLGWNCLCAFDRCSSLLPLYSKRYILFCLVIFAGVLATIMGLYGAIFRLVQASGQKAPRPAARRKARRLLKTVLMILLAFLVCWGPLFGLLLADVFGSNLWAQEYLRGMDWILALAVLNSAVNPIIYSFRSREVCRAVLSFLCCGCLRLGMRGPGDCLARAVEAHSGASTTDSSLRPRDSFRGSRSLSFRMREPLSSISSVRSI
# Target: Sphingosine 1-phosphate receptor 4 (Homo sapiens) (UniProt O95977)
# Assay: S1P4 receptor antagonists, human, confirmation, cell-based (AID 1524)
# Conditions: S1P4-expressing cell line, antagonist mode, reporter read-out; at 4.98 µM; active compounds read high
smiles,measurement,value
C[N+]1=C2C=CC=CC=C2SC12C([N+](=O)[O-])=CC([N+](=O)[O-])=C[C-]2[N+](=O)[O-] (stereo unspecified),inhibition,active: 52.6%

# Reference: PubChem BioAssay AID1524 (The Scripps Research Institute Molecular Screening Center, 2009)
